{"source": "PubChem BioAssay AID448", "about": "(National Center for Advancing Translational Sciences (NCATS), 2006)", "note": "Most of the hits are listed elsewhere, so they are rarer here than in the full data. Active and inactive are the calls of the source. Calls come from the whole dose curve. Potency is the fitted concentration of half-maximal effect.", "data": [{"system": "Schistosoma mansoni peroxiredoxin 2 (Prx2)", "experiment": "Schistosoma Mansoni Peroxiredoxins (Prx2)", "details": "S. mansoni Prx2 activity coupled to TGR/GSH (TGR is thioredoxin glutathione reductase), NADPH fluorescence loss, qHTS", "description": "NIH Molecular Libraries Screening Centers Network [MLSCN]\nNIH Chemical Genomics Center [NCGC]\nDavid Williams [Illinois State University]\nSchistosoma mansoni, a causative agent of schistosomiasis, resides in the bloodstream of their host up to 30 years without being eliminated by the host immune attack. One proposed survival mechanism is the production of an antioxidant \"firewall\" that neutralizes the oxidative assault of the host's immune attack. Schistosoma mansoni peroxiredoxins (Prx) are important parasite antioxidant proteins that play a crucial role in redox balance mechanisms. […] First, the proteins are essential for the parasite survival. […] Third, the protein(s) is amenable for study at the molecular level and can be produced in bacteria in large quantities, in soluble and active form. […] A decrease in the fluorescence intensity of NADPH was used to measure the enzyme activity. […]\nThree uL of reagents were dispensed to 1536-well Greiner black plates. […] The plate was transferred to ViewLux (Perkin-Elmer) High-throughput CCD imager where kinetic measurements (every 30 sec, for a total of 8 min) of NADPH fluorescence were taken using 365 nm excitation/450 nm emission filter set. […]", "values": [{"smiles": "CCOC(=O)N1CCC(=C2c3ccc(Cl)cc3CCc3cccnc32)CC1", "Potency": "inactive: > 57 µM"}, {"smiles": "CCN(CC)CC(=O)Nc1c(C)cccc1C", "Potency": "inactive: > 57 µM"}]}]}
